Measurements taken from PMC12544700, “Identification of a Small Secretoneurin Derivative That Inhibits CaMKIIδ Activity” (Journal of Cellular and Molecular Medicine, 2025).

By UniProt entry, the sequences of proteins in these tests, tags left out.
UniProt Q13557, whole entry T287D: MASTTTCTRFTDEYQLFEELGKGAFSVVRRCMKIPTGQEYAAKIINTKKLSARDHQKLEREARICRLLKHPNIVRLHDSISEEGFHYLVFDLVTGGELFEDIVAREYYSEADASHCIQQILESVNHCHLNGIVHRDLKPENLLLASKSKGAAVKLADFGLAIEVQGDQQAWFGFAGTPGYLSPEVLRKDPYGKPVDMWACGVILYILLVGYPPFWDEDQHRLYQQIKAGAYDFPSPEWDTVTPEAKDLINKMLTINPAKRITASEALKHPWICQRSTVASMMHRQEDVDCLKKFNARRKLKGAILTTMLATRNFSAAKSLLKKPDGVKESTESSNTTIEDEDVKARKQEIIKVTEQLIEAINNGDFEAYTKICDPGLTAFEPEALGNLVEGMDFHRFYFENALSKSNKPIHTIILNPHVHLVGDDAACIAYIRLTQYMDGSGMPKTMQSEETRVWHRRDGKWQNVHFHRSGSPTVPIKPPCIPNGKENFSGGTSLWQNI

Assays:
[1] = biological target: recombinant His‐CaMKIIδ‐T287D (species not named for the experiment) (not stated (rat or human protein made)) (UniProt P15791); assay: ELISA; His‐CaMKIIδ‐T287D or CaMKIIδ fragment coated, 1 μg/well in PBS overnight at 4°C; blocked with gelatin or BSA; 5 μL of 1 mM biotinylated peptide, 2 h at 37°C; anti‐biotin‐HRP, read at 450 nm
[2] = biological target: recombinant human His‐CaMKIIδ‐T287D full‐length protein (human) (UniProt Q13557)

Which fold binding capacity against SN (7–26) [1] does the source give for “biotinylated SN‐db‐short [SN (7–26, L17F, V20F)] (peptide)” here?
Its fold binding capacity against SN (7–26) is 1.5 fold.

And the fold binding capacity against native SN [1]?
The fold binding capacity against native SN was 8 fold.

What about the CaMKIIδ‐mediated phosphorylation of Thr17 of biotin‐ahx‐PLN (1–30), immunoblot; reduction compared to SN [2] of the same substance?
Its CaMKIIδ‐mediated phosphorylation of Thr17 of biotin‐ahx‐PLN (1–30), immunoblot; reduction compared to SN is 84%.

And the CaMKIIδ‐mediated phosphorylation of Thr17 of biotin‐ahx‐PLN (1–30), immunoblot; reduction compared to no peptide [2]?
Its CaMKIIδ‐mediated phosphorylation of Thr17 of biotin‐ahx‐PLN (1–30), immunoblot; reduction compared to no peptide is 86%.
